{
  "sequences": {"note": "Sequences of proteins named here, by UniProt entry; tags and fusion partners are left off. Residues count along the entry.", "UniProt P06276, 29-602": "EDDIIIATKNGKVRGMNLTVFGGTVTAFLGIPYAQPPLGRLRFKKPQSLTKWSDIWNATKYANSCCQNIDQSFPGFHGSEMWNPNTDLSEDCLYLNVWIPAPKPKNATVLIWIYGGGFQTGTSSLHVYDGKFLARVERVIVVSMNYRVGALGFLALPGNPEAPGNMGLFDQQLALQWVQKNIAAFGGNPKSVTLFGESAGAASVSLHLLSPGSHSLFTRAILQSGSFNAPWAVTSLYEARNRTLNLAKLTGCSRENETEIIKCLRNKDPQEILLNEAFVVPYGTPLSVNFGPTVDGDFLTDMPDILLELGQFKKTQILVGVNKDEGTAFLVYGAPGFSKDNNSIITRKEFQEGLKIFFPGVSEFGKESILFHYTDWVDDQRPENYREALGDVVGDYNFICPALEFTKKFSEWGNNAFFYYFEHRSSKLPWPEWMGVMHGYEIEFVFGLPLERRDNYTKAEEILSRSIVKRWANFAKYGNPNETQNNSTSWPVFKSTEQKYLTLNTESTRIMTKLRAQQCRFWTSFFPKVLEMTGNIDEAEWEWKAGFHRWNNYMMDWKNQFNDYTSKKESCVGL"},
  "source": "paper PMC10388794",
  "about": "(Journal of Enzyme Inhibition and Medicinal Chemistry, 2023)",
  "molecular_target": "hBuChE from human serum (Homo sapiens, UniProt P06276)",
  "experiment": "hBuChE inhibition assay",
  "format": "biochemical",
  "data": [
    {"smiles": "CCN(C)C(=O)Oc1cccc([C@H](C)N(C)C)c1", "note": "[Rivastigmine]", "values": [
      {"measurement": "IC50", "result": "6.18 ± 1.05", "unit": "µM"}
    ]}
  ]
}
